# PubChem BioAssay AID1259251 (The Scripps Research Institute Molecular Screening Center, 2017)
# Amino acid sequences for entries named in this document (tags omitted). A change or cut given only in a name is not applied to a line headed by its entry.
# UniProt O75385: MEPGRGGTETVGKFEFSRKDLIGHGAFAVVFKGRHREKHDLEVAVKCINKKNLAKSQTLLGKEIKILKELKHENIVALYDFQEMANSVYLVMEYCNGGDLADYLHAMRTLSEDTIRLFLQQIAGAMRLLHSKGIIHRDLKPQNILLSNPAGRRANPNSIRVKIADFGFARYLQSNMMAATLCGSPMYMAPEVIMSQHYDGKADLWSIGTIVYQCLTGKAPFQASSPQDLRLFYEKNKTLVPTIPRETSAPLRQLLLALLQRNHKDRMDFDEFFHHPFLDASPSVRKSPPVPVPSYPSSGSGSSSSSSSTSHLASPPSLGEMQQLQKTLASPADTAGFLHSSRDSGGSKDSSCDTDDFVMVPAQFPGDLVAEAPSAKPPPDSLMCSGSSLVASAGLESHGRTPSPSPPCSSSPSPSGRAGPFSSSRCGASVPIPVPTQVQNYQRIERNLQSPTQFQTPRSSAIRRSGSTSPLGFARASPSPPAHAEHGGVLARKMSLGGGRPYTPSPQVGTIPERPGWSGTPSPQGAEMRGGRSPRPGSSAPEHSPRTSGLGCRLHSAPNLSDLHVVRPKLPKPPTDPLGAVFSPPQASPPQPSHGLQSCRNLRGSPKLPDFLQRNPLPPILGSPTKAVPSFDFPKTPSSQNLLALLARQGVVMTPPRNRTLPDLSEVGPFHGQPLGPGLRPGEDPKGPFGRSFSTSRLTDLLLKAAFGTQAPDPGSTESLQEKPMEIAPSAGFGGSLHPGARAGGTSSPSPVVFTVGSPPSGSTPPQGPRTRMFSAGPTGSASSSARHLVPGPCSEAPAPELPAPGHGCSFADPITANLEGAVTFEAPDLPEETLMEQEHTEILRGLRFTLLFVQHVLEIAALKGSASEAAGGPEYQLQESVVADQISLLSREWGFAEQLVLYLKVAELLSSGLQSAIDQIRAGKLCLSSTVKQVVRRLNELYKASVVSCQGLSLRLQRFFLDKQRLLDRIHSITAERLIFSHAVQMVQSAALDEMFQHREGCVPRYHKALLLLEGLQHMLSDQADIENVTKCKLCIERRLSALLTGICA
# The entries are a selection whose mix differs from that of the whole data set. Activity calls are given as the source filed them. Rule as the data show it: active = inhibition above about 43%; inactive = the rest.
# Molecular target: Serine/threonine-protein kinase ULK1 (Homo sapiens) (UniProt O75385)
# Experiment: inhibition of human autophagy kinase ULK1 – biochemical, AlphaScreen, primary screen (AID 1259251);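 also: 0% = median of compound wells and 100% = no enzyme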
# Conditions: AlphaScreen Atg13 phosphorylation by ULK1, luminescence; at 5.96 µM; active compounds read high
row,SMILES,inhibition
1,O=P1(N(CCCl)CCCl)OCCCN1CCCl (stereo not given),inactive: 16.2%
2,NC(=O)Nc1ccc([As](=O)(O)O)cc1,inactive: 9.97%
3,CN[C@@H]1C[C@H]2O[C@@](C)([C@@H]1OC)n1c3ccccc3c3c4c(c5c6ccccc6n2c5c31)C(=O)NC4,inactive: -3.03%
4,CN(C(=O)Cc1ccc(Cl)c(Cl)c1)[C@H]1CC[C@@]2(CCCO2)C[C@@H]1N1CCCC1,inactive: -4.17%
5,O=C(NNc1ccc([N+](=O)[O-])cc1[N+](=O)[O-])c1cccc([N+](=O)[O-])c1,inactive: 18.8%
6,O=C(OC1CN2CCC1CC2)c1ccccc1 (stereo not given),inactive: 3.37%
7,O=C(Nc1ccccc1[N+](=O)[O-])c1ccc([N+](=O)[O-])cc1[N+](=O)[O-],inactive: -17.1%
8,O=P(O)(O)F,inactive: 10.7%
9,O=P(Nc1ccccn1)(OCC(F)(F)F)Oc1ccccc1 (stereo not given),inactive: 10.9%
10,O=[N+]([O-])c1cc(/C=N/N=C/c2cc([N+](=O)[O-])cc([N+](=O)[O-])c2O)c(O)c([N+](=O)[O-])c1,inactive: 25.5%
